Values joined by “and” are separate entries in the source; they are usually repeats but may differ in a detail not shown here. Equal values may be shown once.

Amino acid sequences for entries named in this document (tags omitted).
UniProt P35372, whole entry: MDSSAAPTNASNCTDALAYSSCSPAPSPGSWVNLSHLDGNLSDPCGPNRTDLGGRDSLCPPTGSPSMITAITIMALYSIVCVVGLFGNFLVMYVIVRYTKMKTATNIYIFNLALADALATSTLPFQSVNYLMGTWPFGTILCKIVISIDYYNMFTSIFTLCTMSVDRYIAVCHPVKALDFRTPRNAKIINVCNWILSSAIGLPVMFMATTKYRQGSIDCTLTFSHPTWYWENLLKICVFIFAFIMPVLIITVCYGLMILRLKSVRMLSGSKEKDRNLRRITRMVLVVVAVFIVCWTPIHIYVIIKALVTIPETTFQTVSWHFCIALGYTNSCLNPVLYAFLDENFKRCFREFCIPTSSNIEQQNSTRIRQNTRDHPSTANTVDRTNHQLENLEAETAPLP

This passage reports Ki and EC50 results from publication PMC9000250, “Computational Methods for Understanding the Selectivity and Signal Transduction Mechanism of Aminomethyl Tetrahydronaphthalene to Opioid Receptors” (Molecules, 2022).

The target in assay [1] is T1, human MOR (Homo sapiens, UniProt P35372). More on the design: method as in PMID 27096047. The conditions noted are these: read-out: Ki (±SEM) MOR; cited from earlier work.
Assay [2] concerns the target T1, human MOR. The assay is described as follows: [35S]GTP-γ-S functional assay, CHO cell membranes. It counts as biochemical. The conditions noted are these: MOR EC50, stimulation of [35S]GTPγS binding; NA = no activity. On the procedure: In a final volume of 0.5 mL, various concentrations of each tested compound were incubated with […] (μ) of CHO cell membranes that stably expressed the human MOR. The assay buffer consisted of 50 mM Tris-HCl, pH 7.4, 3 mM MgCl2, 0.2 mM EGTA, […] and 100 mM NaCl. The final concentration of [^35S]GTP-γ-S was 0.08 nM. Nonspecific binding was measured by the inclusion of […] GTP-γ-S. Binding was initiated by the addition of the membranes. After an incubation period of 60 min at 30 °C, the reactions were terminated by rapid filtration, and the radioactivity was determined by liquid scintillation counting.
(In general: Binding of GTPγS marks nucleotide exchange on a G protein.)

A word on the Ki: it is the dissociation constant of the complex between target and ligand, obtained from inhibition or displacement. By EC50 is commonly meant the concentration at which the effect is half-maximal. Higher therefore signals a need for much substance. As to `CN(C)CC1CCCCC1(O)c1cccc(O)c1` (centres unmarked) [M1, reference compound], on human MOR [1], the Ki is 13 ± 0.5 nM. Further, the EC50 at human MOR [2] was 246 nM and 245 nM.
